Laboratory results reported in US8440641B2, “Phthalocyanine salt formulations” (Case Western Reserve University, priority 2009, dated 2013).

Assay: Photofading of phthalocyanines on irradiation with tungsten lamp light
Assay type: physicochemical
Description: Linolenate Ester of SiPc(OH)2, SiPc(OC(O)(CH2)6(CH2CH═CH)3 CH2CH3]2. A solution of the linolenate ester of SiPc(OH)2 in toluene (˜0.01 mM) in a capped quartz cuvette was irradiated at room temperature with light from a tungsten lamp (300 W) in a projector (Kodak […] III E, Kodak, Japan) with a lamp-to-cuvette separation of 30 cm. The UV-vis absorption of the solution at 684 nm was taken periodically and the percent ester remaining was calculated.
The compounds below Table 7 show phthalocyanines with (a) polyunsaturated ester ligands and (b) with polyunsaturated anions

## SiPc(OC(O)(CH2)6(CH2CH═CH)3CH2CH3]2 [linolenic ester]
  % left: 88 68 59%
